Results taken from US20200121812A1 (Teva Pharmaceuticals International GmbH, priority 2015, published 2020).

Test system: dopamine in the striatum
Assay: Microdialysis in Sprague-Dawley rats
Assay type: in vivo
Conditions: 50 mg/kg ip, compared to conventional L-DOPA, FIG. 1

half life of deu-dopamine in the striatum/brain: more than doubled
SMILES: [2H]C([2H])(c1ccc(O)c(O)c1)[C@]([2H])(N)C(=O)O [Deulevodopa]
